Measured values taken from patent publication US20220389013A1, “PYRIDOPYRIMIDINONE COMPOUNDS AND APPLICATIONS THEREOF” (BeBetter Med Inc., priority 2020, published 2022).
Where “and” joins values, the source holds several entries; their conditions need not be identical. Equal entries are not always repeated.

System: MIA Paca2 T2 xenograft tumor
Test: MIA Paca2 T2 human pancreatic cancer xenograft mouse subcutaneous model
Conditions: 100 mg/kg, po, qd, 28 days

C=CC(=O)N1CCN(c2nc(=O)n(-c3c(C)ccnc3C(C)C)c3nc(-c4c(O)cccc4F)c(F)cc23)[C@@H](C)C1 (atropisomer, axis not shown) [AMG510, reference compound]
Antitumor activity T/C value (%): −96% and −95.7%
